Results published in patent US20260382640A1, “USES OF FARNESOID X RECEPTOR AGONISTS” (published 2026).

Tests used:
liver = experiment: Liver histology (H&E, picrosirius red): steatosis and fibrosis; conditions: in words; for fibrosis (Pico Sirius Red): 30 mpk, no fibrosis at baseline or in vehicle group
Method: (§1) Dose Route and timing: Oral Gavage (Group 2-7) Once Daily (Day 1-14). The first day of dosing was designated as Day 1 The dose formulations were stirred continuously during dosing. The doses were given using a syringe with attached gavage cannula.
The liver and small intestine collected from all animals in Groups 1-7 (Main Study) were fixed in 10% neutral buffered formalin for 24-48 hours and transferred to 70% EtOH, stored under ambient conditions and transferred to the histopathology lab at Testing Facility.
Formalin fixed liver tissues were trimmed to slides and stained with H&E and picrosirius red stains. Slides were scored by Charles River board certified veterinarian pathologists.

[1] = tested on: mouse model of alcoholic steatohepatitis; experiment: Plasma/serum clinical chemistry (ALP, bilirubin, endotoxin, bile acids) in mouse alcoholic liver disease study; conditions: vs vehicle treated ALD mice, FIG. 2
From the text: (§2) The objective of this study was to assess efficacy of the test articles obeticholic acid (OCA), Compound 1 and Compound 2 on liver and intestinal pathology in a mouse model of alcoholic steatohepatitis.
(§3) • Species: Mouse • Strain: C57BL/6J (JAX #000664) • Condition: Purpose-bred, naïve • Source: Jackson Laboratories • Number of Females: 138 (119 on study+19 spares) • Target Age at the 10 weeks • Initiation of Study:
as §1
Terminal plasma and tissue samples were gathered. Plasma was analyzed for TG, TC, ALT, AST, ALP, FGF15 (LCMS), TBIL, and endotoxin.

[2] = tested on: mouse model of alcoholic steatohepatitis; experiment: Survival in mouse model of alcoholic steatohepatitis (Lieber-DeCarli ethanol diet); conditions: for % Alive: Day 1-14, includes animals for PK; for survival: superior to the other two compounds
From the text: as §2, §3
Diet: 5CR4 chow until Day −26; Lieber-DeCarli liquid diet Days-28 to Day 15. Upon arrival at the Testing Facility, all animals were placed on PMI Nutrition International Certified Rodent Chow No. 5CR4 ad libitum. During the chow diet phase (until Day −26), the diet in meal form may be provided to individual animals as warranted by clinical signs (e.g., broken/damaged incisors or other health changes).
On Day −26, all animals received 50 mL ethanol diet (1% v/v ethanol). The percentage of alcohol in the liquid diet was increased by 1% v/v every day until reaching 5% (v/v) on day −22 and is maintained at 5% v/v until the end of the study.
as §1

Row | SMILES | fibrosis (Pico Sirius Red) (liver) | serum bile acids ([1]; 10 mg/kg (lower of both doses)) | serum bile acids ([1]; 30 mg/kg (high dose)) | steatosis (graded 1-5 by a pathologist) (liver; 10 mpk) | % Alive ([2]; 10 mg/kg PO QD) [%] | survival ([2]; 10 mg/kg, in words) | % Alive ([2]; 30 mg/kg PO QD) [%] | survival ([2]; 30 mg/kg, in words) | survival versus OCA ([2]; compared with OCA, in words)
1 | CC[C@H]1[C@@H](O)[C@@H]2[C@H](CC[C@]3(C)[C@@H]([C@H](C)CCC(=O)O)CC[C@@H]23)[C@@]2(C)CC[C@@H](O)C[C@@H]12 | minimal increase | – | – | – | – | – | – | – | –
2 | CC[C@H]1[C@@H](O)C2C3CC[C@H]([C@H](C)CCC(=O)O)[C@@]3(C)C[C@H](O)C2[C@@]2(C)CC[C@@H](O)C[C@@H]12 (stereo partly shown) | minimal increase | significantly lowered | significantly lowered | close to statistical significance | 79 | greatly improved survival | 68 | greatly improved survival | improved survival better than OCA
